Experimental data: ChEMBL document CHEMBL5260838 (J Med Chem, 2019)
pIC50: −log10 of the molar value.

Chains of the proteins cited; added tags and fusions are not shown.
UniProt Q15858, whole entry: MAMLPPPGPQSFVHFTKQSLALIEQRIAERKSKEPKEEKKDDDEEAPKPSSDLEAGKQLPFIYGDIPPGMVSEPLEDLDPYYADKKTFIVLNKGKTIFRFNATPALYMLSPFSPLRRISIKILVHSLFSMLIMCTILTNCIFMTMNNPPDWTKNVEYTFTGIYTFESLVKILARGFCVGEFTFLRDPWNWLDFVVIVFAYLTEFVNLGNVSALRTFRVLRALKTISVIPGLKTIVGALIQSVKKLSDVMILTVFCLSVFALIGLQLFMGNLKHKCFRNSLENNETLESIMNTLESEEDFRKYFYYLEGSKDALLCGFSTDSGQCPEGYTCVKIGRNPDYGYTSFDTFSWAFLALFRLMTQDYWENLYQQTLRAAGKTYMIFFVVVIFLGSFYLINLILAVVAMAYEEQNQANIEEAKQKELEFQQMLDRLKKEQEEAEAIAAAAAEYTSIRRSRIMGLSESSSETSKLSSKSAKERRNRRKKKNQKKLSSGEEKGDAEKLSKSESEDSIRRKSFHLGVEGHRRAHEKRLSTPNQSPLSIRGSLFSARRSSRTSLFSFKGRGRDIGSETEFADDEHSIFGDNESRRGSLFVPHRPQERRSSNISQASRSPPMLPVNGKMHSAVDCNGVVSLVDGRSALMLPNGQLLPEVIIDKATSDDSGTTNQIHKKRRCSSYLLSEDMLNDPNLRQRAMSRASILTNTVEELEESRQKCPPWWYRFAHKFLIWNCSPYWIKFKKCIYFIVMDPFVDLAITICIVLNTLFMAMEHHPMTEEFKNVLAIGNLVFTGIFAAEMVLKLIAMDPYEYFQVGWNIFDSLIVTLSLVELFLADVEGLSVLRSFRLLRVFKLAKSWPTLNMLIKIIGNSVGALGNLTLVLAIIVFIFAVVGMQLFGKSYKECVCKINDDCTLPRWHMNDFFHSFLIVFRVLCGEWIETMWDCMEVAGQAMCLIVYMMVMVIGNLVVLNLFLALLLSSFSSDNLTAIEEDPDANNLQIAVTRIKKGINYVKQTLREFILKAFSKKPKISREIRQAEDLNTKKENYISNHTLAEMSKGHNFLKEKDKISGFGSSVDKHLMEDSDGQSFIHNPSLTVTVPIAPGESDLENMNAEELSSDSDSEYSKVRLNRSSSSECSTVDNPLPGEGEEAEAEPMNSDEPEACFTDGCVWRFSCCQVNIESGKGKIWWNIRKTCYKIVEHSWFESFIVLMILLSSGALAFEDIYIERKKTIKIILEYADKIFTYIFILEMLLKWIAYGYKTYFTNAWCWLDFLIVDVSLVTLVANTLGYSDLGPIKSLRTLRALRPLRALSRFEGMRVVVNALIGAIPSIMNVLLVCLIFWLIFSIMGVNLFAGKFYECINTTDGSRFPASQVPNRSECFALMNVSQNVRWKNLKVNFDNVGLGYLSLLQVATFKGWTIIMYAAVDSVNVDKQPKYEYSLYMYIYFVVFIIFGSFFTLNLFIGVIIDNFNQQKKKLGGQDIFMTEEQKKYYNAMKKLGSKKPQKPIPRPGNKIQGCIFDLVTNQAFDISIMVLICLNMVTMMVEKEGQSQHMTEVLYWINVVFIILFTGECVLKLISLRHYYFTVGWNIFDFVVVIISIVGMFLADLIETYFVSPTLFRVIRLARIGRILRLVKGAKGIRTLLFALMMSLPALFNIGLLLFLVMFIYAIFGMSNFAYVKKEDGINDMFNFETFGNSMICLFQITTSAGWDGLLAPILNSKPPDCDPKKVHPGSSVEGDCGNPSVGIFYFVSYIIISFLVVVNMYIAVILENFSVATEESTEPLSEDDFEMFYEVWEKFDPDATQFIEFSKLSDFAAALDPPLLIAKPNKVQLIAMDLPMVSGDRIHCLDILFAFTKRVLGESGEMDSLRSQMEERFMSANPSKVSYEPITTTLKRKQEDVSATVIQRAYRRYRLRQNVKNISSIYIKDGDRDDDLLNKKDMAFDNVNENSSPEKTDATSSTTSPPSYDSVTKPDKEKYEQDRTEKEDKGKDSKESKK

Tests used:
[1] = target: T1, Sodium channel protein type 9 subunit alpha (Homo sapiens, UniProt Q15858); assay: Displacement of [3H]GX-545 from human Nav1.7 alpha subunit expressed in HEK293 cells co-expressing beta1 subunit by liquid scintillation counting analysis; type: cell-based
[2] = target: T1, Sodium channel protein type 9 subunit alpha; assay: Inhibition of human Nav1.7 alpha subunit expressed in HEK293 cells co-expressing beta1 subunit at -60 mV holding potential by whole-cell patch voltage clamp electrophysiology recording; type: cell-based

**Q.** `CC1(COc2cc(F)c(C(=O)NS(=O)(=O)C3CC3)cc2C2CC2)CCC(F)(F)CC1` was tested. Which pIC50 [1] did it give?
**A.** 7.82

**Q.** What about the pIC50 [2] of the same molecule?
**A.** 8.52
